# Laboratory results as given in PubChem BioAssay AID1467 (National Center for Advancing Translational Sciences (NCATS), 2008).
# Sequences of proteins named here, by UniProt entry; tags and fusion partners are left off.
# UniProt P06280, whole entry: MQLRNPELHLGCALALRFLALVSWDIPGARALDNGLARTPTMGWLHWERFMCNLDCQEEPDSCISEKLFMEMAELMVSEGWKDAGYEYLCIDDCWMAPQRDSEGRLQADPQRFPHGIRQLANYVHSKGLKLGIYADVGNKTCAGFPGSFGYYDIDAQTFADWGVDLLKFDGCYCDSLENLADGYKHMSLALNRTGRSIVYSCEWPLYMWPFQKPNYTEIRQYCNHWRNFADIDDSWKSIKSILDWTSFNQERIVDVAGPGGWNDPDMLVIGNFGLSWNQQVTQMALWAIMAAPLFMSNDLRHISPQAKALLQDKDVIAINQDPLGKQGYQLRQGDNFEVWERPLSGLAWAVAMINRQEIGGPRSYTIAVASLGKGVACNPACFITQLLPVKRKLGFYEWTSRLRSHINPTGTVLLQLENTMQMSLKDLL
# The entries are a selection whose mix differs from that of the whole data set. Calls of active or inactive are those of the source. Calls come from the whole dose curve; as a rule, active = well fitted curve in the direction sought with a large enough effect; inconclusive = small, poorly fitted or top-dose-only effect, or effect the other way, or another doubt; inactive = no such curve, though single readings can be large or run the other way.
# Biological target: Alpha-galactosidase A (Homo sapiens) (UniProt P06280)
# Experiment: qHTS Assay for Inhibitors of Human alpha-Galactosidase at pH 4.5.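 Note: 0% = full activity with enzyme and -100% = basal without enzyme.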
# Settings: purified enzyme, 4-MU-alpha-Gal fluorescence; at 105 µM (top of the series) unless noted
# Source text: NIH Chemical Genomics Center [NCGC]
# NIH Molecular Libraries Probe Production centers Network [MLPCN]
# Assay Submitter (PI): Wei Zheng
# Alpha-galactosidase is a homodimeric glycoprotein that hydrolyzes the terminal alpha-galactosyl moieties from glycolipids and glycoproteins. Deficiency of this enzyme results in Fabry Disease with progressive accumulation of globotriaosylceramide and other glycosphingolipids in vascular endothelial cells that causes renal failure, myocardial infarction and stroke, and premature death in patients. It has been reported that the improper folding and trafficking of alpha-galactosidase resulting from the genetic mutations may account for a significant numbers of Fabry patients. […] We optimized this alpha-galactosidase assay in 1536-well plate format for identifying the novel small molecule inhibitors with the structures other than the sugar analogs in order to develop the new pharmacological chaperones. Although this assay has the same protocol as PubChem AID 992, this is a separate project and, therefore, is published as a separate assay
# NCGC Assay Protocol Summary:
# This is a fluorogenic enzyme assay with 4-Methylumbelliferyl alpha-D-galactopyranoside as the substrate and human […] as the enzyme preparation. Upon the hydrolysis of this fluorogenic substrate, the resulting product, […]. 4-Methyllumbelliferone, can be excited at 365 nm and emits at 440 nm. This fluorescence which can be detected by a standard fluorescence plate reader. Data were normalized to the controls for basal activity (without enzyme) and 100% activity (with enzyme). In the AC50 values were determined from concentration-response data modeled with the standard Hill equation.
# Assay buffer: 50 mM citric acid (titrated with potassium phosphate to pH 4.5), 0.005% Tween-20, pH 4.5. (pH 4.5 is an optimal condition for this enzyme assay)
# 1536-well assay protocol for the human alpha-galactosidase:
# (1) Add 2 ul/well of enzyme (12 nM final)
# (2) Add 23 nL compounds in DMSO solution. The final titration was 0.7 nM to 77 uM.
# (3) Add 1 ul of substrate (400 uM final)
# (4) Incubate at room temperature for 20 min.
# (5) Add 2 ul stop solution (1M NaOH and 1M Glycine mixture, pH 10)
# (6) Detect the assay plate in a ViewLux plate reader (PerkinElmer) with Ex=365 nm and Em=440nm.
# Keywords: MLSMR, MLPCN, NIH Roadmap, qHTS, NCGC, : Alpha-galactosidase, Fabry Disease, pharmacological chaperone, chaperone therapy
row,Compound,"activity change, negative = inhibition"
1,Nc1cccc([As](=O)(O)c2ccccc2)c1,inactive: 9.08%
2,CP(=O)(Nc1ccc(SC(F)(F)F)cc1)Oc1ccccc1 (stereo not given),inactive: -2.74%
3,Cc1ccc(OCC(=O)OC2CN3CCC2CC3)cc1 (stereo not given),inactive: 6.27%
4,O=[As](O)(c1cccs1)c1cccs1,inactive: -3.64%
5,O=P1(Nc2ccc(Br)cn2)COc2ccccc2OC1,inactive: -3.19%
6,CN1CCCCC1COC(=O)C1(O)c2ccccc2CCc2ccccc21 (stereo not given),inactive: 8.58%
7,COc1ccccc1OP(C)(=O)Nc1c(C)cccc1C (stereo not given),inactive: 1.62%
8,O=P1(Nc2ncccn2)COc2ccccc2OC1,inactive: 3.65%
9,Cc1cc(SC(NC(=O)c2ccccc2)C(Cl)(Cl)Cl)nc(C(C)C)n1 (stereo not given),inactive: 2.47%
10,CCOC(=O)Nc1ccc([As](=O)(O)O)c(O)c1,inactive: 6.02%
11,COc1ccccc1OP(C)(=O)Nc1ccccc1 (stereo not given),inactive: 3.27%
12,Cc1cc(SC(NC=O)C(Cl)(Cl)Cl)ncn1 (stereo not given),inactive: -3.1%
13,O=P(Nc1ccccn1)(c1cccc2ccccc12)c1cccc2ccccc12,inactive: -3.14%
14,O=[N+]([O-])c1ccc(Nc2ccc(Oc3ccc([N+](=O)[O-])cc3[N+](=O)[O-])cc2)c([N+](=O)[O-])c1,inactive: 0.464%
15,CP(=O)(Nc1ccccc1Br)Oc1ccccc1 (stereo not given),inactive: 7.7%
16,CP(=S)(Nn1cnnc1)Oc1ccccc1 (stereo not given),inactive: 1.71%
17,CCOC(=O)Nc1cccc([As](=O)(O)O)c1,inactive: -3.21%
18,Cc1cc(C)cc(OP(C)(=O)Nc2ccc(SC(F)(F)F)cc2)c1 (stereo not given),inactive: -10.1%
19,CP(=O)(NC(=O)Nc1ccccc1)Oc1ccccc1 (stereo not given),inactive: 3.76%
20,O=C(COc1ccccc1)OC1CN2CCC1CC2 (stereo not given),inactive: -3.57%
21,CCc1ccc(OP(C)(=O)N2CCN(c3ccc([N+](=O)[O-])cc3)CC2)cc1 (stereo not given),inactive: -5.71%
22,CP(=O)(Oc1ccccc1)OC(c1ccccc1)C(F)(F)F (stereo not given),inactive: 2.84%
23,COP1(=S)c2c(C)nn(CCC#N)c2N=C(c2ccc(F)cc2)N1C (stereo not given),inactive: 0.152%
24,CP(=O)(Nc1ccc(SC(F)(F)F)cc1)Oc1ccc(Cl)cc1 (stereo not given),inactive: -5.05%
25,Cc1cccc(C)c1OP(C)(=O)Nc1ccc(SC(F)(F)F)cc1 (stereo not given),inactive: -10.4%
26,CCC(C)N(CC(C)C)C(=S)SC(NC(C)=O)C(Cl)(Cl)Cl (stereo not given),inactive: -6.07%
27,CP(=O)(Nc1ccccn1)Oc1ccc(Cl)cc1 (stereo not given),inactive: 8.83%
28,CCOP(C)(=S)SCC(=O)NC(C)C(=O)O (stereo not given),inactive: 3.85%

row,Compound,"activity change, negative = inhibition"
1,CCOC(=O)c1ccc(NC(=O)C(C)(CCl)SC)cc1 (stereo not given),inactive: -1.83%
2,CCOC(=O)c1ccc(NP(C)(=O)Oc2ccc(OC)cc2)cc1 (stereo not given),inactive: -4.21%
3,COc1cc(I)ccc1[As](=O)(O)O,inactive: 6.34%
4,COc1ccc2nc(NP(=O)(c3ccccc3)c3ccccc3)sc2c1,inactive: 2.54%
5,Cc1c2c(nc3ccccc13)SC(C(Cl)Cl)C2 (stereo not given),inactive: -7.35%
6,Cc1cc(=O)[nH]c(N[N+](=O)[O-])n1,inactive: 5.48%
7,CCN(CC)CCCOC(=O)C(O)(c1ccccc1)c1ccccc1,inactive: -26.1%
8,O=C(OC1CN2CCC1CC2)C12CC3CC(CC(C3)C1)C2 (stereo not given),inactive: 1.68%
9,COc1ccc(N/C(=N/P(=O)(N2CCOCC2)N2CCOCC2)N2CCOCC2)cc1,inactive: 4.99%
10,Cc1cccc(C)c1OP(C)(N)=O (stereo not given),inactive: 12.2%
11,Cc1ccc(OP(=O)(Nc2ccc([N+](=O)[O-])cn2)Oc2ccc(C)cc2)cc1,inactive: -9.28%
12,CC(C)(C)c1ccc(OP(C)(=O)Nc2ccc(SC(F)(F)F)cc2)cc1 (stereo not given),inactive: -13.1%
13,O=[N+]([O-])c1ccc2c(c1)C=Nc1ccccc1O2,inactive: 2.66%
14,Cc1ccc2nc3c(c(C)c2c1)CC(C(Cl)Cl)S3 (stereo not given),inactive: 1.43%
15,O=[As](O)(c1ccc(O)cc1)c1ccccc1O,inactive: -0.38%
16,C[As](=O)(O)c1cccc(C(=O)O)c1,inactive: -0.634%
17,COc1ccc(OP(C)(=O)Nc2cccc(F)c2)cc1 (stereo not given),inactive: 8.38%
18,O=[N+]([O-])c1cc([N+](=O)[O-])c(-c2ccn[nH]2)s1,inactive: 2.81%
19,CC(C)NC(=O)NP(=O)(Oc1ccccc1)Oc1ccccc1,inactive: -1.67%
20,COc1ccccc1OP(C)(=O)Nc1cc(Cl)ccc1C (stereo not given),inactive: 6.25%
21,CCN(CC)C(=S)SC(NC=O)C(Cl)(Cl)Cl (stereo not given),inactive: -15.8%
22,Cc1cc(C)cc(OP(C)(N)=O)c1 (stereo not given),inactive: 6.09%
23,ClCCSc1nnc(-c2cccnc2)o1,inactive: 12.1%
24,CCOC(=O)c1ccc(NP(C)(=O)Oc2ccccc2)cc1 (stereo not given),inactive: 2.4%
25,Cc1ccc(NP(C)(=O)Oc2ccccc2)c(C)c1 (stereo not given),inactive: -1.24%
26,CC(C)c1ccc(OP(=O)(Nc2ccccn2)Oc2ccccc2F)cc1 (stereo not given),inactive: -1.67%
27,COc1ccccc1OP(C)(=O)Nc1ccc(C)cc1 (stereo not given),inactive: -1.66%
